In article PMC3954981 (Bioorganic & medicinal chemistry, 2014):

Test system: PADs 1, 2, 3, and 4
Experiment: Library screening, inhibition of the PADs described in words
Format: biochemical, human
Conditions: 10 μM, PADs 1–4

SMILES: NC1=C(Br)C(=O)c2cccnc2C1=O [Compound 21]
- inhibition of the PADs (in words): strong inhibition
